Source: patent publication US20190256842A1

Molecular target: RNAP holoenzyme (bacterial (E. coli S1030 host cells))

pIII-luciferase production (luminescence, one-hybrid reporter in E. coli): > 10 fold
Substance: ω-Zif268-DBD fusion protein
